These results are taken from PMC6626687.

This assay deals with F-actin (UniProt P60709). Briefly: co-sedimentation.

Take “recombinant full-length tau (from UniProt P10636-4 1-381) (natural protein)”: the percent recovered in the F-actin pellet came out at 43% and the percent recovered in the F-actin pellet, with tau45-230 present was 25%.

On to “recombinant tau_(45-230) (from UniProt P10636-8 45-230) (domain or fragment)”, for which the percent recovered in the F-actin pellet turned out to be 19% and the percent recovered in the F-actin pellet, with full-length tau present amounted to 29%.
